From PubChem BioAssay AID2283149 (EPA ToxCast)
This is a selection; strong and weak results do not stand in their true shares. Results filed as inconclusive are left out. Activity calls are given as the source filed them. Rule for the calls: active = hit-call score of the fitted dose curve at least 0.9, where 1 is the maximum; inconclusive = response in the unintended direction; inactive = score below 0.9.

Chains of the proteins cited; added tags and fusions are not shown. Lines headed by an entry give the natural chain unless they say otherwise; changes in a name come on top.
UniProt P48729: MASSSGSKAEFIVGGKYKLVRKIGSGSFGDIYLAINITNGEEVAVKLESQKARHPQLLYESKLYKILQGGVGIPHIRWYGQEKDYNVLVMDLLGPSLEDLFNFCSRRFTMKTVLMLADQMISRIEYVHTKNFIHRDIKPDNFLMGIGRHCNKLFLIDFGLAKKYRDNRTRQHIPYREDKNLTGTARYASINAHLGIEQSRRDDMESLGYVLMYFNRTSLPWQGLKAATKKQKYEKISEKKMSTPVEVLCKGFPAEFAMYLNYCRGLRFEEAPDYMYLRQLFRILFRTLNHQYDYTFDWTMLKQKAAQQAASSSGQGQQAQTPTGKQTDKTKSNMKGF

What follows are molecules tested against human Casein Kinase 1-alpha (CK1a), CSNK1A1 (gene 1452) (UniProt P48729) (assay: NVS_ENZ_hCK1a: NovaScreen (NVS) Enzymatic Assay for human Casein Kinase 1-alpha (CK1a)).
Description: NVS_ENZ_hCK1a is a biochemical, single-readout assay that uses extracted gene-proteins in a cell-free assay. Measurements were taken 1 hour after chemical dosing in a 384-well plate.NVS_ENZ_hCK1a is one of one assay component(s) measured or calculated from the NVS_ENZ_hCK1a assay. It is designed to make measurements of enzyme activity, a form of enzyme reporter, as detected with fluorescence intensity signals by Fluorescence and electrophoretic mobility shift technology.Data from the assay component NVS_ENZ_hCK1a was analyzed into 1 assay endpoint. This assay endpoint, NVS_ENZ_hCK1a, was analyzed in the positive analysis fitting direction relative to DMSO as the negative control and baseline of activity. Using a type of enzyme reporter, loss-of-signal activity can be used to understand changes in the enzymatic activity as they relate to the gene CSNK1A1. Furthermore, this assay endpoint can be referred to as a primary readout, because this assay has produced multiple assay endpoints where this one serves a enzymatic activity function. To generalize the intended target to other relatable targets, this assay endpoint is annotated to the kinase intended target family, where the subfamily is serine/threonine kinase. […]
For `O=C1C2CC=CCC2C(=O)N1SC(Cl)(Cl)C(Cl)Cl` (stereo unspecified), the outcome was “inactive”.
